{"source": "ChEMBL document CHEMBL3124896", "about": "“Optimization of the lactam side chain of 7-azaindenoisoquinoline topoisomerase I inhibitors and mechanism of action studies in cancer cells” (2014)", "experiment": "Resistance ratio of GI50 for vinblastine-resistant human KBV1 cells to GI50 for human KB 3.1 cells", "assay_type": "functional", "outline": "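Relative resistance = GI50 in the resistant subline divided by GI50 in the parental line. Both GI50s came from 72 h continuous-exposure MTS growth assays, each based on at least two independent determinations.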"}
{"smiles": "COc1cccc2c1C(=O)c1c(O)c3c(c(O)c1C2=O)C[C@@](O)(C(=O)CO)C[C@@H]3O[C@H]1C[C@H](N)[C@H](O)[C@H](C)O1", "note": "[DOXORUBICIN]", "values": [{"measurement": "RatioGI50", "value": ">1.48"}]}
